Experiments:
[1] = Oral bioavailability of ibuprofen crushed tablets in control rats; type: in vivo; conditions: male, Sprague-Dawley, rat, plasma, 20 mg/kg
Procedure: (§1) The animal models are Adult male Sprague-Dawley rats with body weight of 250-300 g, and which were cared for in accordance with the principles and guidelines of the Canadian Council of Animal Care. All rats were catheterized in the right jugular vein for sample collection.
(§2) The tablets were crushed gently and small pieces were administered into the stomach via a plastic tube followed by 0.5 mL tap water. […] They had free access to water.

[2] = Oral bioavailability of ibuprofen formulations in vagal-suppressed (propantheline-treated, Pain Model) rats; type: in vivo; conditions: male, Sprague-Dawley, rat, plasma, 20 mg/kg
Procedure: as §1
An animal model having suppressed vagal properties were produced by administering (intraperitoneal injection) to the rats two 20 mg/kg doses of propantheline (test, n=6), an anticholinergic agent with known vagal suppressive properties, the first dose at 2 hours prior to administration of an NSAID, and the second at 1 hour prior.
as §2

## CC(C)Cc1ccc(C(C)C(=O)O)cc1 (racemic) [ibuprofen, (±)-2-(4-Isobutylphenyl)propionic acid]
[1]; Control rats, oral 20 mg/kg ibuprofen as crushed tablets, read-out: AUC (0-1)
  AUC(0-t): 48700 ng·h/mL
[1]; control rats, before propantheline treatment effect, oral 20 mg/kg, read-out: AUC(0-1)
  AUC(0-t): 48700 ng·h/mL
[2]; propantheline treatment (vagal suppression), oral 20 mg/kg, read-out: AUC(0-1)
  AUC(0-t): 12200 ng·h/mL
[2]; vagal-suppressed (Pain Model) rats, oral 20 mg/kg ibuprofen as crushed tablets, read-out: AUC (0-1)
  AUC(0-t): 12200 ng·h/mL
[2]; vagal-suppressed (Pain Model) rats, oral 20 mg/kg ibuprofen as crushed tablets, read-out: AUC (0-8)
  AUC(0-t): 81800 ng·h/mL

— patent US20050249808A1, “NSAIDs compositions containing tartaric acid” (priority 2001, published 2005)
